Measurements as given in ChEMBL document CHEMBL5500396, “Discovery, Multiparametric Optimization, and Solid-State Driven Identification of CHF-6550, a Novel Soft Dual Pharmacology Muscarinic Antagonist and β2 Agonist (MABA) for the Inhaled Treatment of Respiratory Diseases” (J Med Chem, 2024).
Active and inactive are the calls of the source. No cut-off for these calls is given here.

What was measured:
Cavia porcellus [1] = assay: Bronchodilating effect in histamine induced male albino Dunkin-Hartley guinea pig model assessed as prevention of bronchospasm at 3 nmol/kg, preadministered with compound as dry powder followed by histamine addition at 5 to 30 mins and measured upto 24 hrs post compound treatment; type: functional, organism-based
Cavia porcellus [2] = assay: Bronchodilating effect in acetylcholine induced male albino Dunkin-Hartley guinea pig model preadministered intratracheally with compound followed by acetylcholine addition at 5 to 30 mins in presence of ICI-118551 and measured 1 hrs post compound treatment; type: functional, organism-based; conditions: dose 0.03-0.3 nmol/kg, route it(Intratracheal)
Cavia porcellus [3] = assay: (§1) Bronchodilating effect in acetylcholine induced male albino Dunkin-Hartley guinea pig model assessed as prevention of bronchospasm at 3 nmol/kg, preadministered with compound as dry powder followed by acetylcholine addition at 5 to 30 mins and measured upto 24 hrs post compound treatment; type: functional, organism-based
Cavia porcellus [4] = assay: Bronchodilating effect in histamine induced male albino Dunkin-Hartley guinea pig model assessed as prevention of bronchospasm preadministered with compound as dry powder followed by histamine addition at 5 to 30 mins and measured 1 hrs post compound treatment; type: functional, organism-based; conditions: dose 0.3-3 nmol/kg
Cavia porcellus [5] = assay: Bronchodilating effect in acetylcholine induced male albino Dunkin-Hartley guinea pig model preadministered intratracheally with compound followed by acetylcholine addition at 5 to 30 mins and measured 1 hrs post compound treatment; type: functional, organism-based; conditions: dose 0.03-0.3 nmol/kg, route it(Intratracheal)
Cavia porcellus [6] = assay: Bronchodilating effect in acetylcholine induced male albino Dunkin-Hartley guinea pig model assessed as prevention of bronchospasm preadministered with compound as dry powder followed by acetylcholine addition at 5 to 30 mins in presence of ICI-118551 and measured 1 hrs post compound treatment; type: functional, organism-based; conditions: dose 0.3-3 nmol/kg
Cavia porcellus [7] = assay: Bronchodilating effect in acetylcholine induced male albino Dunkin-Hartley guinea pig model assessed as prevention of bronchospasm preadministered with compound as dry powder followed by acetylcholine addition at 5 to 30 mins and measured 1 hrs post compound treatment; type: functional, organism-based; conditions: dose 0.3-3 nmol/kg
Cavia porcellus [8] = assay: as §1, with “mins in presence of ICI-118551” for “mins”; type: functional, organism-based
Cavia porcellus [9] = assay: Bronchodilating effect in histamine-induced male albino Dunkin-Hartley guinea pig model preadministered intratracheally with compound followed by histamine addition at 5 to 30 mins and measured 1 hrs post compound treatment; type: functional, organism-based; conditions: dose 0.03-0.3 nmol/kg, route it(Intratracheal)
[10] = Drug metabolism in guinea pig lung assessed as (2S)-2-hydroxy-2-[3-[3-[[4-[[[(2R)-2-hydroxy-2-(8-hydroxy-2-oxo-1H-quinolin-5-yl)ethyl]amino]methyl]benzoyl]amino]propoxy]phenyl]-2-phenyl-acetic acid metabolite formation at 3 nmol/kg, IT(Intratracheal) administered as dry powder; type: ADME, tissue-based, Cavia porcellus; conditions: in vivo, inhaled_or_intranasal

Row | Compound | Activity (Cavia porcellus [1]) | Activity (Cavia porcellus [2]) | Activity (Cavia porcellus [3]) | Activity (Cavia porcellus [4]) | Activity (Cavia porcellus [5]) | Activity (Cavia porcellus [6]) | Activity (Cavia porcellus [7]) | Activity (Cavia porcellus [8]) | Activity (Cavia porcellus [9]) | Drug metabolism [10]
1 | CN1CCC[C@@H](OC(=O)[C@](O)(c2ccccc2)c2cccc(OCCCNC(=O)c3ccc(CNC[C@H](O)c4ccc(O)c5[nH]c(=O)ccc45)cc3)c2)C1 | Active | Dose-Dependent Effect | Active | Dose-Dependent Effect | Dose-Dependent Effect | Dose-Dependent Effect | Dose-Dependent Effect | Active | Dose-Dependent Effect | 
2 | O=C(NCCCOc1cccc([C@](O)(C(=O)O)c2ccccc2)c1)c1ccc(CNC[C@H](O)c2ccc(O)c3[nH]c(=O)ccc23)cc1 |  |  |  |  |  |  |  |  |  | Metabolite_Notdetected
